US20190247353A1, “ACNE STRAIN-SELECTIVE ANTIBACTERIAL AGENT” (MOMOTANI JUNTENKAN CO., LTD., priority 2016, published 2019)

System: HL053PA1 strain (RT4) and HL043PA1 strain (RT5) versus HL110PA3 strain (RT6)
Test: Strain-selective antibacterial activity (average of MICRT6/MICRT4 and MICRT6/MICRT5)
Format: cell-based, Propionibacterium acnes
Conditions: pH 6.0 (Example 1)
From the text: Herein, “acne strain-selective antibacterial activity” or “strain-selective antibacterial activity” means an index indicating better inhibition of growth of a dominant strain in acne patients compared to that of a dominant strain in healthy subjects. It is expressed by the average value of the values (MICRT6/MICRT4, and MICRT6/MICRTS) obtained by dividing the minimum inhibitory concentration (MIC) of an object substance with respect to the dominant strain in healthy subjects (RT6 strain) (MICRT6) respectively by the MIC of the object substance with respect to the dominant strain in acne patients (RT4 strain) (MICRT4), and by the MIC of the object substance with respect to the dominant strain in acne patients (RT5 strain) (MICRT5).
The strain-selective antibacterial activity of each test substance (Table 2, right-most column) was evaluated based on the following rating criteria (Table 3). When the strain-selective antibacterial activity is indicated by a numerical range, the rating was based on the minimum value thereof.

**Q.** Which Strain-selective antibacterial activity does the source give for `CCCCCCCCCCCC(=O)O` [Lauric acid (C12:0), Lauric acid, reference compound] here?
**A.** The Strain-selective antibacterial activity was 0.75.
